Patent publication US20230079150A1, “METHODS FOR PREVENTION OR TREATMENT OF VIRUS-INDUCED ORGAN INJURY OR FAILURE WITH IL-22 DIMER” (priority 2020, published 2023)
Several values for one entry are separate records, joined by “and”; a condition that tells them apart may be missing. Equal entries are not always repeated. Where two headings read alike, the source gives them in different places.

System: Influenza A virus subtype H1N1 (strain A/California/07/2009)
Conditions: for Total pathological score, Mean ± SD: group mean
[1] = Day 5 after viral challenge, individual animals
[2] = Day 14 after viral challenge, individual animals

CCOC(=O)C1=C[C@@H](OC(CC)CC)[C@H](NC(C)=O)[C@@H](N)C1 [Oseltamivir, oseltamivir]
Total pathological score, Mean ± SD (Day 5 after viral challenge): 10.67±3.51
Alveolar septum and perivascular infiltration of inflammatory cells [1]: 2 (2×) and 3
Bronchial epithelial cell degeneration and necrosis [1]: 2 (2×) and 3
lung injury (histopathological evaluation and morphological changes) (Day 5 and Day 14, in comparison to model control group): reduced
Total pathological score, Mean ± SD (Day 14 after viral challenge): 15.40±1.95
Alveolar septum and perivascular infiltration of inflammatory cells [2]: 3 (3×) and 2 and 4
Bronchial epithelial cell hyperplasia [2]: 2
Exudation of inflammatory cells, serous, and cellulose in the alveolar cavity [2]: 2 (3×) and 3 (2×)
